Molecules are shown by their SMILES. Only a part is listed here, and it is no random draw. Activity calls are given as the source filed them.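 How the source made its calls: active means inhibition above its plate's cutoff, the mean of tested wells on that plate plus 3 SD (cut at about 29% in these data); inactive means the rest.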

Amino acid sequences for entries named in this document (tags omitted).
UniProt P32245, whole entry, looked up: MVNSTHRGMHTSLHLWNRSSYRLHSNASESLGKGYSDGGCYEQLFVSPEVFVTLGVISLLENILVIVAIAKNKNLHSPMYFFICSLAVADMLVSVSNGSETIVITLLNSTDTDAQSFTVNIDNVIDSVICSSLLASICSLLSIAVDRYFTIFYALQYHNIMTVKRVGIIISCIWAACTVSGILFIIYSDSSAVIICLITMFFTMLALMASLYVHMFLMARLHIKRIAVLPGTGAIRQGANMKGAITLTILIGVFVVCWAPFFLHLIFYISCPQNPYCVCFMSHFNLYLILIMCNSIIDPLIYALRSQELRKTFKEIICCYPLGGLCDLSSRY

The record followed here is PubChem BioAssay AID540295 (The Scripps Research Institute Molecular Screening Center, 2011).

This assay concerns the target Melanocortin receptor 4 (Homo sapiens) (UniProt P32245). The assay is described as follows: MC4R antagonists of cAMP signaling, primary screen, cell-based, TR-FRET, antagonist arm of biased-ligand search (AID 540295).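 Further: 0% = Melanotan II alone and 100% = Melanotan II plus saturating MCL0020.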 Particulars: MC4R-expressing cells, MTII-stimulated cAMP, LANCE TR-FRET; at 6.5 µM; stronger effect = higher value. (In general: In TR-FRET formats the signal depends on donor and acceptor labels being close together.)
As a reminder, the inhibition is the change of the read-out against control, counted positive when it falls. Consider `COC(=O)C1(C)COP(=O)(Nc2ccccc2)OC1` (stereo not given), for which the inhibition was inactive: -3.55%. In the case of `O=[N+]([O-])c1cccc(NC2=NCC(CBr)S2)c1` (stereo not given), the inhibition is inactive: 2.59%. In the case of `O=C(O)CNc1ccc([As](=O)(O)O)cc1`, the inhibition was inactive: 5.51%.

Take `CC(C)(C)C(=O)NC(Sc1ccncn1)C(Cl)(Cl)Cl` (stereo not given): the inhibition was inactive: 4.04%. As for `O=[N+]([O-])c1ncn(CCn2ncnc2[N+](=O)[O-])n1`, the figure is inactive: 4.07%; as for `O=C(Nc1cc([As](=O)(O)O)ccc1O)c1ccccc1`, inactive: 8.88%; as for `O=P1(N(CCCl)CCCl)OCCCS1` (stereo not given), inactive: 1.11%. As for `CN(C)C(=O)OCCc1n(C)cc[n+]1C`, the figure is inactive: 14.1%; as for `CC(C)c1nc(Nc2ccccc2)n(P(=O)(N(C)C)N(C)C)n1`, inactive: 0.66%. In the case of `CC(C)=N/N=C(\N)N[N+](=O)[O-]`, the inhibition is inactive: 3.01%. In the case of `CC1CCN(C(=O)Oc2c(Cl)cc(Cl)c3cccnc23)CC1`, the inhibition was inactive: -10.3%.

For `c1cc(-c2nn[nH]n2)ccc1-c1nn[nH]n1`, the inhibition was inactive: -2.66%. To `C[N+]1=C2C=CC=CC=C2SC12C([N+](=O)[O-])=CC([N+](=O)[O-])=C[C-]2[N+](=O)[O-]` (stereo not given) belongs inactive: 2.77%; to `Nc1ccc([As](=O)(O)c2ccc(N)cc2)cc1`, inactive: 1.65%; to `CCN(/C(=N/P(=O)(N1CCOCC1)N1CCOCC1)N1CCOCC1)c1ccc(OC)cc1`, inactive: 0.49%. For the compound `CC(=O)N1C2C3N(C(C)=O)C1C1N(C(C)=O)C(C(N1C(C)=O)N3C(C)=O)N2C(C)=O`, the inhibition was inactive: -0.38%. As for `O=[N+]([O-])c1cccc2n[nH]nc12`, the figure is inactive: 5.33%; as for `O=[N+]([O-])c1cc([N+](=O)[O-])c(CCNc2ccccc2)c([N+](=O)[O-])c1`, inactive: 5.98%; as for `CCc1nc2c(n1)c1c(non1O)c1c2no[n+]1[O-]`, inactive: -44.4%. Consider `Cc1ccc(NP(=O)(Oc2ccccc2)Oc2ccccc2)nc1`, for which the inhibition is inactive: -0.2%. In the case of `COc1ccc(C2=NCC(CBr)S2)cc1` (stereo not given), the inhibition was inactive: 0.49%. In the case of `Nc1cc(N)c2nonc2c1[N+](=O)[O-]`, the inhibition was inactive: 4.24%. Consider `CC(C)CC(=O)NC(Sc1ccc(Cl)cc1)C(Cl)(Cl)Cl` (stereo not given), for which the inhibition is inactive: 5.65%.

Consider `O=C(NC(Sc1ccncn1)C(Cl)(Cl)Cl)c1ccccc1` (stereo not given), for which the inhibition is inactive: 6.38%. As to `Oc1ccccc1CNc1ccccn1`, the inhibition is inactive: 3.57%. As for `Cc1ccc(OP(=O)(Nc2nccs2)Oc2ccc(C)cc2)cc1`, the figure is inactive: 4.2%. Turning to `COc1ccccc1OP(=O)(Nc1ccc(C)cn1)Oc1ccccc1OC`, the inhibition was inactive: 3.85%. Turning to `CN1CCCC(OC(=O)C(c2ccccc2)c2ccccc2)C1` (stereo not given), the inhibition was inactive: -6.05%.

`Clc1ccc(Cl)c(NC2=NCC(CBr)S2)c1` (stereo not given): the inhibition is inactive: 19.7%.

For `NC(=O)c1cc([N+](=O)[O-])cc([N+](=O)[O-])c1N`, the inhibition was inactive: 16.6%.

On to `Cc1ccc(N/C(=N/P(=O)(N2CCOCC2)N2CCOCC2)N2CCOCC2)cc1`, for which the inhibition was inactive: 5.58%. `CN(C(=O)Cc1ccc(Cl)c(Cl)c1)[C@H]1CCCC[C@H]1N1CCCC1`: the inhibition is inactive: 5.39%. For the compound `CCN(N=Nc1nonc1N)c1nonc1N`, the inhibition was inactive: -1.18%. As for `Nc1cccc2ccc([As](=O)(O)O)cc12`, the figure is inactive: 2.25%; as for `CN(C(=O)Cc1ccc(Cl)c(Cl)c1)[C@H]1CCCC[C@@H]1N1CCCC1`, inactive: 9.98%. Regarding `Cc1ccc(NP(=O)(Oc2ccccc2F)Oc2ccccc2F)nc1`, the inhibition was inactive: 16%.

Regarding `Cc1cc(SC(NC(=O)c2ccc(F)cc2)C(Cl)(Cl)Cl)ncn1` (stereo not given), the inhibition was inactive: 6.17%. Turning to `CCOP(=O)(Nc1ccccc1)OCC`, the inhibition is inactive: 7.85%. `CCCC1OP(N)(=O)OCC1CC` (stereo not given): the inhibition was inactive: 13.1%. As to `CC(=O)Nc1ccc([As](=O)(O)O)cc1`, the inhibition is inactive: 20.5%. As for `O=C(O)c1ccccc1[As](=O)(O)O`, the figure is inactive: 0.43%; as for `O=P(Nc1nc2ccc(Cl)cc2s1)(c1ccccc1)c1ccccc1`, inactive: -6.24%.

Regarding `CN(C)P(=O)(N(C)C)n1c(Nc2ccccc2)nnc1-c1ccccc1`, the inhibition was inactive: 7.36%. As to `O=c1c2cc([N+](=O)[O-])ccc2[nH]c2c([N+](=O)[O-])cc([N+](=O)[O-])cc12`, the inhibition was inactive: 19%. With `CN(C)C(=O)Oc1noc2ccccc12`, the inhibition is inactive: 0.71%. In the case of `CC(NC(=O)COC(=O)C(O)(c1ccccc1)c1ccccc1)c1ccccc1` (stereo not given), the inhibition was inactive: 13.1%. Turning to `Cc1ccccc1OP(=O)(Nc1ccccn1)Oc1ccccc1C`, the inhibition is inactive: 4.63%. For the compound `Cc1ccc(OP(=O)(Nc2ccccn2)Oc2ccc(C)cc2)cc1`, the inhibition is inactive: 7.82%. Consider `CC(=O)NC(SC(=S)N(CC(C)C)CC(C)C)C(Cl)(Cl)Cl` (stereo not given), for which the inhibition was inactive: 8.46%. As for `COC(=O)c1cc2c(s1)N=C(c1ccccc1)N(C)P2(=O)N1CCOCC1` (stereo not given), the figure is inactive: 12.1%. As to `CCC(=O)N1C2C3N(C(=O)CC)C1C1N(C(=O)CC)C(C(N1C(=O)CC)N3C(=O)CC)N2C(=O)CC`, the inhibition was inactive: 11.8%. Take `O=C(OC1CN2CCC1CC2)c1ccccc1` (stereo not given): the inhibition was inactive: 0.43%. Consider `O=P1(N(CCCl)CCCl)OCCC2CCCCN21` (stereo not given), for which the inhibition was inactive: 1.75%.

As for `O=C(NC1CCS(=O)(=O)C1)NP(=S)(Oc1ccccc1)Oc1ccccc1` (stereo not given), the inhibition was inactive: -4.16%. With `CCNC(=S)/N=C(\N)N[N+](=O)[O-]`, the inhibition was inactive: 10.8%. In the case of `Cc1ccc(NP(=O)(Oc2cccc(C)c2)Oc2cccc(C)c2)nc1`, the inhibition is inactive: 1.65%. With `c1ccc(-c2nn[nH]n2)c(-c2nn[nH]n2)c1`, the inhibition is inactive: -4.35%.

With `CC(=O)Nc1ccc(Oc2c([N+](=O)[O-])cc([N+](=O)[O-])cc2[N+](=O)[O-])cc1`, the inhibition was inactive: 11.7%. As for `CC(=O)Nc1ccc([As](=O)(O)O)c(O)c1`, the figure is inactive: 0.76%. For `COC(=O)C1(C)COP(=O)(NCc2ccccc2)OC1` (stereo not given), the inhibition is inactive: 2.04%. `CC(=O)c1ccc(N2CC2c2ccncc2)cc1` (stereo not given): the inhibition was inactive: 12.6%. To `N#C/C(=C\c1ccc(N(CCBr)CCBr)cc1)C(N)=O` belongs inactive: -3.65%; to `C[C@H]1OP(=O)(Oc2ccccc2)C[C@@H]2O[C@@H]21` (stereo not given in full), inactive: 17.3%; to `C[C@@H]1C=CCP(=O)(Oc2ccccc2)O1` (stereo not given in full), inactive: -3.03%.

Regarding `Cc1ccccc1CN(C)C(=O)COC(=O)C(O)(c1ccccc1)c1ccccc1`, the inhibition was inactive: -2.89%.
